OPERA 2.9 data: vapor pressure values

Data: OPERA 2.9 data sets, kmansouri/OPERA on GitHub.

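These are experimental values that the OPERA curators gathered from public databases to train and test their QSAR models. The files give a single number for a compound and property, which may rest on several reports. Method and conditions are not stated for these values. A value may pool stereoisomers or salt forms, and the file does not say which form was measured. Unmarked limits or estimates from the upstream databases cannot be ruled out.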

Vapor pressure is log10 of mmHg; the set covers 15 to 30 °C, mostly 20 to 25 °C. "–" marks a cell with nothing listed here. "via" names the databases from which the curators took the value.

SMILES	name	log vapor pressure (log10 mmHg)	via
COCc1ccc(-c2ccc(COC)cc2)cc1	4,4'-Bis(methoxymethyl)-1,1'-biphenyl	-6.195	eChemPortal
CC=C(C(=O)O)c1ccc([N+](=O)[O-])cc1	alpha-Ethylidene-4-nitrobenzeneacetic acid	-7.569	eChemPortal
COC(=O)C(=O)c1ccccc1	Benzeneacetic acid, .alpha.-oxo-, methyl ester	-1.557	eChemPortal
CCCCCCCCC(O)CO (stereo unspecified)	1,2-Decanediol	-4.307	eChemPortal
C=C1C(O)CC2CC1C2(C)C (stereo unspecified)	Bicyclo[3.1.1]heptan-3-ol, 6,6-dimethyl-2-methylene-	-0.982	eChemPortal
C=C(C)C(=O)OCCOCCOc1ccc(C(=O)c2ccccc2)cc1	2-[2-(4-Benzoylphenoxy)ethoxy]ethyl methacrylate	-5.317	eChemPortal
CC1CC(O)CC(C)(C)C1 (stereo unspecified)	3,3,5-Trimethylcyclohexanol	-0.523	eChemPortal
CCOC(=O)C1OC1c1ccccc1 (stereo unspecified)	Ethyl 2,3-epoxy-3-phenylpropionate	-3.046	eChemPortal
CC[C@]1(C/C=C2\CCCc3cc(OC)ccc32)C(=O)CC[C@@H]1O	–	-8.347	eChemPortal
C/C=C/C(=O)Oc1c(C(C)CCCCCC)cc([N+](=O)[O-])cc1[N+](=O)[O-] (stereo partly drawn)	Meptyldinocap	-7.226	OCHEM
CC(C)(C)C(=O)C(Oc1ccc(Cl)cc1)n1ccnc1 (stereo unspecified)	Climbazole	-5.143	eChemPortal
C=CCN(C)CC=C	N-Methyldiallylamine	1.283	eChemPortal
Cc1ccc(/N=N/c2c(O)c(C(=O)[O-])cc3ccccc23)c(S(=O)(=O)[O-])c1.[Na+].[Na+]	C.I. Pigment Red 57	-9.907	eChemPortal
COc1ccc(C)cc1	1-Methoxy-4-methylbenzene	-0.026	eChemPortal
CC1=CC(C)C(C2OCC3COC(C4CCC(C)=CC4C)N32)CC1 (stereo unspecified)	–	-2.87	eChemPortal
C=CCCC(=O)CC1CC2CCC1C2 (stereo unspecified)	–	-1.878	eChemPortal
COC(=O)c1ccccc1-c1ccc(CBr)cc1	Methyl 4'-(bromomethyl)[1,1'-biphenyl]-2-carboxylate	-4.913	eChemPortal
Cc1ccc(S(=O)(=O)NN)cc1	Toluene-4-sulphonohydrazide	-7.269	eChemPortal
CCCC(=O)OC(C)C1CCCCC1 (stereo unspecified)	1-Cyclohexylethyl butyrate	-1.312	eChemPortal
Clc1cc(Cl)c(-c2ccc(Cl)c(Cl)c2Cl)c(Cl)c1	2,2',3,4,4',6'-Hexachlorobiphenyl	-5.025	OCHEM
CCOC(F)(F)C(F)(F)C(F)(F)C(F)(F)C(F)(F)F	1-Ethoxy-1,1,2,2,3,3,4,4,5,5,5-undecafluoropentane	1.571	ICF
CC(C)(O)C(=O)c1ccc(C2(C)CC(C)(C)c3cc(C(=O)C(C)(C)O)ccc32)cc1 (stereo unspecified)	–	-9.875	eChemPortal
CCCc1ccc(-c2cc(F)c(C(F)(F)Oc3cc(F)c(F)c(F)c3)c(F)c2)cc1	–	-3.887	eChemPortal
ClC(Cl)(Cl)C1CO1 (stereo unspecified)	1,2-Epoxy-3,3,3-trichloropropane	1.064	PubChem
CCCC(C)C1OCC(C)(CCC)CO1 (stereo unspecified)	1,3-Dioxane, 5-methyl-2-(1-methylbutyl)-5-propyl-	-1.507	eChemPortal
CCOC(=O)CC(C)CC(C)(C)C (stereo unspecified)	Ethyl 3,5,5-trimethylhexanoate	-0.289	eChemPortal
CC(C)(C)c1cc(CCC(=O)OCCNC(=O)C(=O)NCCOC(=O)CCc2cc(C(C)(C)C)c(O)c(C(C)(C)C)c2)cc(C(C)(C)C)c1O	–	-9.837	eChemPortal
COc1nc(OC)nc(C(=O)c2cccc(F)c2N(C)S(=O)(=O)C(F)F)n1	–	-7.319	eChemPortal
C=C(C)C(=O)NCCCN(C)C	N-(3-Dimethylaminopropyl)methacrylamide	-2.523	eChemPortal
OCc1ccc(Cl)cc1Cl	2,4-Dichlorobenzyl alcohol	-2.936	eChemPortal
CCC(CC)CO[Si](OCC(CC)CC)(OCC(CC)CC)OCC(CC)CC	Tetrakis(2-ethylbutyl) orthosilicate	-3.937	eChemPortal
CCC(C)Nc1ccc(NC(C)CC)cc1 (stereo unspecified)	N,N'-Bis(1-methylpropyl)-1,4-benzenediamine	-3.562	eChemPortal
CCOC(=O)C(C)=CCP(=O)(OCC)OCC	Ethyl 4-(diethoxyphosphinyl)-2-methyl-2-butenoate	-4.824	eChemPortal
CCCCCCOC	Hexane, 1-methoxy-	1.215	eChemPortal

3 of these entries, quoted again:

SMILES	name	log vapor pressure (log10 mmHg)	via
C=CCN(C)CC=C	N-Methyldiallylamine	1.283	eChemPortal
CCC(C)Nc1ccc(NC(C)CC)cc1 (stereo unspecified)	N,N'-Bis(1-methylpropyl)-1,4-benzenediamine	-3.562	eChemPortal
CCOC(=O)CC(C)CC(C)(C)C (stereo unspecified)	Ethyl 3,5,5-trimethylhexanoate	-0.289	eChemPortal